Assay results: ChEMBL document CHEMBL5137055, “Near-Infrared Fluorescent Probes as Imaging and Theranostic Modalities for Amyloid-Beta and Tau Aggregates in Alzheimer's Disease” (J Med Chem, 2022)

Protein sequences, listed by entry. Tags and fused reporters are not part of them.
UniProt P05067, whole entry: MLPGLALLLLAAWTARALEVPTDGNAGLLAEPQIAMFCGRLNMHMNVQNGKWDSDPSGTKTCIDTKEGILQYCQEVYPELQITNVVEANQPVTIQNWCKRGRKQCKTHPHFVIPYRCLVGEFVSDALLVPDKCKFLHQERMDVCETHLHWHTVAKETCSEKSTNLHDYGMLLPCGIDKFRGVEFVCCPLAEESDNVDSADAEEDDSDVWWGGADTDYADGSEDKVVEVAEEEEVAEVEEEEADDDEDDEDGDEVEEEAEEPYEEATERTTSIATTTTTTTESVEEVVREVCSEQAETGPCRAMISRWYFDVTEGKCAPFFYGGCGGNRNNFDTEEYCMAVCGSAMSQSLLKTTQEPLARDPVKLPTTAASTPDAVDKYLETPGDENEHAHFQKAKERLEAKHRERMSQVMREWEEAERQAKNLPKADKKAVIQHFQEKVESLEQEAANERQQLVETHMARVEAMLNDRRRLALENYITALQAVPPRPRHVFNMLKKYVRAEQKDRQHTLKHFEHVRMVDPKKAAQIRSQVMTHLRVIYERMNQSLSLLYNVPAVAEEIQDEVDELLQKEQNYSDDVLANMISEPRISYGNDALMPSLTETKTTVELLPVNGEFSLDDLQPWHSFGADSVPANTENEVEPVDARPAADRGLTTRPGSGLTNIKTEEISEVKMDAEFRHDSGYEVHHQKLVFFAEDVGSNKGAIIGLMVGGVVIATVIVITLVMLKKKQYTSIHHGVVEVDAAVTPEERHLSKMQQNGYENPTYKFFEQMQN

Target: Amyloid-beta precursor protein (Homo sapiens, UniProt P05067)
Assay: Binding affinity to amyloid beta (1 to 42) (unknown origin) aggregates

Cc1ccc2c(c1)sc(-c1ccc(N(C)C)cc1)[n+]2C
Kd: 1900 nM
